Reference: PubChem BioAssay AID485358 (National Center for Advancing Translational Sciences (NCATS), 2010)
This is a selection; strong and weak results do not stand in their true shares. The source made the active and inactive calls.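 The calls were made as follows: active = activation over 3 SD above normal in the single-dose calcium agonist read (cut at about 30% in these data); inactive = the rest.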
Also: 0% is about no effect.

Chains of the proteins cited; added tags and fusions are not shown.
UniProt P14416, whole entry, looked up: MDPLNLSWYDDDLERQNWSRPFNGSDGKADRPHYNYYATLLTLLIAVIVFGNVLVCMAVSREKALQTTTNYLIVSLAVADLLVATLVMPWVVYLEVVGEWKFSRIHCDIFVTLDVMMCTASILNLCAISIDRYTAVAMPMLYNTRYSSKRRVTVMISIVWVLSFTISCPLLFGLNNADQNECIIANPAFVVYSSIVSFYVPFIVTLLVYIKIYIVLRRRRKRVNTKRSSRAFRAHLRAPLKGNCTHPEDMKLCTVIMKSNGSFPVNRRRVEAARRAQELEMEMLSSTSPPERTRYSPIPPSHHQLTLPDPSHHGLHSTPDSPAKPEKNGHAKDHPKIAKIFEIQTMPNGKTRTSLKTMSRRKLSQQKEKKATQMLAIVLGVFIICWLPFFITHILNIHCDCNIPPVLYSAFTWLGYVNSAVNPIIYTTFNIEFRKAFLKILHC

These compounds were tested against D(2) dopamine receptor (Homo sapiens) (UniProt P14416) (assay: HTS Assay for Allosteric Agonists of the Human D2 Dopamine Receptor: Primary Screen for Agonists). Details: HEK293 T-REx D2 cells, calcium flux agonist mode; at 2 µM; active compounds read high.
In short: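 Agonism scored from kinetic calcium signal (1 read/sec, 180 s) following compound pin transfer, after a 10 s baseline. Cells: HEK293 Trex line expressing inducible D2 receptor coupled to calcium, dye-loaded after overnight culture at 30 C.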
In the case of `O=C(/C=C/c1ccccc1)OC1CN2CCC1CC2` (stereo unspecified), the activation is reported as inactive: 0.597%. In the case of `CN(C)C1(CNC(=O)c2ccc(S(C)(=O)=O)cc2)CCCCC1`, the activation is reported as inactive: -0.245%. `Cc1ccc(C(=O)OC2CN3CCC2CC3)cc1` (stereo unspecified) was tested, and the activation was inactive: 0.785%. With `CC1CCC(C(C)C)C(OP(=O)(Nc2ccccn2)c2ccccc2)C1` (stereo unspecified) the activation was inactive: 2.12%. `Cc1nn(-c2ccccc2)c2c1P(=O)(N1CCOCC1)N(C)C(c1ccccc1)=N2` (stereo unspecified) was tested, and the activation was inactive: -0.609%. In the case of `O=[As](O)(c1cccs1)c1cccs1`, the activation is reported as inactive: -0.463%. `Cc1ccc(OCC(=O)OC2CN3CCC2CC3)cc1` (stereo unspecified) was tested, and the activation was inactive: -0.198%. With `O=P1(Nc2ccc(Br)cn2)COc2ccccc2OC1` the activation was inactive: 3.73%. In the case of `Nc1cccc([As](=O)(O)c2ccccc2)c1`, the activation is reported as inactive: -0.626%. For `O=P1(Nc2ncccn2)COc2ccccc2OC1`, the activation was inactive: -1.54%. `Cc1cc(SC(NC(=O)c2ccccc2)C(Cl)(Cl)Cl)nc(C(C)C)n1` (stereo unspecified) was tested, and the activation was inactive: -0.758%. With `CCCCOc1ccc(C(=O)NCC2(N3CCCCC3)CCCCC2)cc1OC` the activation was active: 33.2%. With `CCOC(=O)Nc1ccc([As](=O)(O)O)c(O)c1` the activation was inactive: 0.376%. In the case of `O=[N+]([O-])c1ccc(Nc2ccc(Oc3ccc([N+](=O)[O-])cc3[N+](=O)[O-])cc2)c([N+](=O)[O-])c1`, the activation is reported as inactive: 0.762%. With `O=P(Nc1ccccn1)(c1cccc2ccccc12)c1cccc2ccccc12` the activation was inactive: 5.52%. `CCOC(=O)Nc1cccc([As](=O)(O)O)c1` was tested, and the activation was inactive: 0.587%. In the case of `O=C(Nc1ccncc1[N+](=O)[O-])c1ccc([N+](=O)[O-])cc1[N+](=O)[O-]`, the activation is reported as inactive: 2.27%. In the case of `O=C(COc1ccccc1)OC1CN2CCC1CC2` (stereo unspecified), the activation is reported as inactive: 0.323%. `COP1(=S)c2c(C)nn(CCC#N)c2N=C(c2ccc(F)cc2)N1C` (stereo unspecified) was tested, and the activation was inactive: -2.31%. `CCC(C)N(CC(C)C)C(=S)SC(NC(C)=O)C(Cl)(Cl)Cl` (stereo unspecified) was tested, and the activation was inactive: -0.308%. With `CCOC(=O)c1ccc(NC(=O)C(C)(CCl)SC)cc1` (stereo unspecified) the activation was inactive: -0.0938%. In the case of `O=C(OC1CN2CCC1CC2)c1cccc([N+](=O)[O-])c1` (stereo unspecified), the activation is reported as inactive: 1.48%. `COc1cc(I)ccc1[As](=O)(O)O` was tested, and the activation was inactive: 0.852%. In the case of `COc1ccc2nc(NP(=O)(c3ccccc3)c3ccccc3)sc2c1`, the activation is reported as inactive: 0.552%. `Cc1cc(=O)[nH]c(N[N+](=O)[O-])n1` was tested, and the activation was inactive: 5.99%. `O=C(OC1CN2CCC1CC2)C12CC3CC(CC(C3)C1)C2` (stereo unspecified) was tested, and the activation was inactive: 1.46%. With `Cc1c2c(nc3ccccc13)SC(C(Cl)Cl)C2` (stereo unspecified) the activation was active: 41.5%. With `COc1ccc(N/C(=N/P(=O)(N2CCOCC2)N2CCOCC2)N2CCOCC2)cc1` the activation was inactive: 0.053%. With `Cc1ccc2nc3c(c(C)c2c1)CC(C(Cl)Cl)S3` (stereo unspecified) the activation was inactive: 9.4%. With `Cc1ccc(OP(=O)(Nc2ccc([N+](=O)[O-])cn2)Oc2ccc(C)cc2)cc1` the activation was inactive: -0.655%. `O=[As](O)(c1ccc(O)cc1)c1ccccc1O` was tested, and the activation was inactive: 0.601%. With `C[As](=O)(O)c1cccc(C(=O)O)c1` the activation was inactive: 0.167%. `O=[N+]([O-])c1cc([N+](=O)[O-])c(-c2ccn[nH]2)s1` was tested, and the activation was inactive: -0.883%. For `CC(C)NC(=O)NP(=O)(Oc1ccccc1)Oc1ccccc1`, the activation was inactive: 0.577%. `CCN(CC)C(=S)SC(NC=O)C(Cl)(Cl)Cl` (stereo unspecified) was tested, and the activation was inactive: 0.247%. In the case of `CC(C)c1ccc(OP(=O)(Nc2ccccn2)Oc2ccccc2F)cc1` (stereo unspecified), the activation is reported as inactive: -0.68%.
